The values that follow come from US8143403B2 (Bristol-Myers Squibb Company, priority 2008, dated 2012).

In experiment [1] the test system is CGRP-induced increase in laser Doppler facial blood flow. The experiment can be described thus: Inhibition of CGRP-induced increase in laser Doppler facial blood flow in non-human primate. It counts as in vivo, common marmoset (Callithrix jacchus). The following applies: hαCGRP i.v., increasing doses at 30 min intervals, n=6. On the procedure: FIG. 4. […] Data are peak % change from baseline±sem, with each animal serving as its own control.
Saturation/Scatchard Analysis. […] Saturation data were analyzed using a one site binding equation to estimate apparent equilibrium dissociation constant (Kd) and the maximum number of binding sites (Bmax) (Prizm v4.0, Graphpad). […] Functional Antagonism/Schild analysis. Agonist stimulation of CGRP receptor complex leads to cyclic AMP (adenosine 3′5′-cyclic monophosphate) production via Gs-dependent activation of an adenylate cyclase (Juaneda C et al., TiPS, 2000; 21:432-438). Consequently, CGRP receptor antagonists inhibit CGRP-induced cyclic AMP formation in SK-N-MC cells which natively express the CGRP receptor complex (Doods H et al., Br J Pharmacol, 2000; 129(3):420-423). […] A Schild analysis format was used, which allowed investigation of the mechanism of antagonism. […] Various concentrations of CGRP were added and the cells were allowed to incubate 30 min at room temperature. The cells were lysed with lysis reagent and cAMP concentrations were determined by HTRF according to the manufacturer's instructions. A standard curve using known quantities of cAMP was evaluated in parallel to allow conversion of HTRF ratio to nM cAMP. The resulting curves were then evaluated using a Gaddum/Schild equation individually and with global fitting (Prizm v4.0, Graphpad). […]

The subject of experiment [2] is i.v. hαCGRP-induced increase in middle meningeal artery diameter and facial blood flow. The experiment can be described thus: Validation of facial blood flow as surrogate for intracranial artery dilation in the rat. The class given is in vivo. Particulars: n=5 rats.

Take “hαCGRP: human αCGRP, calcitonin gene-related peptide, CGRP-receptor agonist used as vasodilator (ACDTATCVTHRLAGLLSRSGGVVKNNFVPTNVGSKAF; Calcitonin gene-related peptide 1; UniProt P06881 83-119, looked up)”: the “increase in laser Doppler facial blood flow” value in experiment [1] was “dose-dependent increase”. In experiment [2], the “percent increase in rat facial blood flow” value is 100-120 % of baseline and the “percent increase in rat middle meningeal artery diameter” value is given as 100-120 % of baseline.
